SMILES strings stand for the structures.

The test system of data set [1] is ddY female mice with ovary extraction. Description: Weight of bone of both thighs in ovary-extracted mice. The data set is classed as in vivo. As to conditions: (absolute weight of bone/body weight at sacrifice)×100; FOSA group: Fosamax 10 mg/kg oral, 4 weeks. Here is the method:
After sacrifice, a weight of bone of both thighs is calculated with g unit. To reduce an error arising from a difference of individual body weight, a weight of bone is calculated with relative weight as following equation. Weight of bone=[(absolute weight of bone/body weight at sacrifice)×100]

For data set [2] the following is noted: FOSA group: Fosamax 10 mg/kg oral; D: after 1 week of administration.

Consider `NCCCC(O)(P(=O)(O)O)P(=O)(O)O` [FOSA, sodium alendronate], for which the “Relative weight of bone” value in data set [1] is 0.217 ± 0.015. Further, the body weight in data set [2] was 34.46 ± 2.76.
